Values of other authors as cited in article PMC3197876 (Journal of medicinal chemistry, 2011).

Chains of the proteins cited; added tags and fusions are not shown. Residues count along the entry.
UniProt P17787, 26-502: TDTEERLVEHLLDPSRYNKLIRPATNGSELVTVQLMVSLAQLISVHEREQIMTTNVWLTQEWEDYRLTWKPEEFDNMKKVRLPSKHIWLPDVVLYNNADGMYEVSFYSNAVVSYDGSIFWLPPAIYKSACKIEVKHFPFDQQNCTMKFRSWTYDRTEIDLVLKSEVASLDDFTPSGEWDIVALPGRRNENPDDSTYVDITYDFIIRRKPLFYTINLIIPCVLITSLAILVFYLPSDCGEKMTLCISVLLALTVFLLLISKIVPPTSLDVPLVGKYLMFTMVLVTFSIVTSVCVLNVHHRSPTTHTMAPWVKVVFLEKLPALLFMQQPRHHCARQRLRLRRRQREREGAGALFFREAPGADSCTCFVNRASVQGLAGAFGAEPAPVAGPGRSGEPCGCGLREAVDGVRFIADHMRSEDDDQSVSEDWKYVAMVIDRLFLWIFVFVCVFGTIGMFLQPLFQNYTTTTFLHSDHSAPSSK
UniProt P43681, 29-627 limits assumed: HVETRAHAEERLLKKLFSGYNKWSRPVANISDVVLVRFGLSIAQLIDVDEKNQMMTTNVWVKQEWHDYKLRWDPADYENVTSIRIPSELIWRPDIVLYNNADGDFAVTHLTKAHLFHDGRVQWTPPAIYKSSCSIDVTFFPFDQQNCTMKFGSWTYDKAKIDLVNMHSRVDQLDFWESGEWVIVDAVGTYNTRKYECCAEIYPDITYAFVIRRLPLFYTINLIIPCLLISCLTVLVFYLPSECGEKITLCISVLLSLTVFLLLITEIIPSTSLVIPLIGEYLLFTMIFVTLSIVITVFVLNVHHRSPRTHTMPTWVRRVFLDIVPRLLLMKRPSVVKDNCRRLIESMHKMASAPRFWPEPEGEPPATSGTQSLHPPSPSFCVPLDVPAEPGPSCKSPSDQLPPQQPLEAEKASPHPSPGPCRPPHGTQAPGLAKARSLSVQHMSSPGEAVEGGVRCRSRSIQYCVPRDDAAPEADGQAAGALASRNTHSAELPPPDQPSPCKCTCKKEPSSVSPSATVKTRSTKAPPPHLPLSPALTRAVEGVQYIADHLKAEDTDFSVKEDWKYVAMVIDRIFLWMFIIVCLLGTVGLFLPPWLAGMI

Biological target: human α4β2-nAChR (Homo sapiens, UniProt P17787+P43681)
Settings: normalized to complete functional inhibition; ref [13]; cited from earlier work

**Q.** Which “Inactivation Efficacy” value does the source give for CN1CCC[C@H]1c1cccnc1 [Nicotine] here?
**A.** Its value is 93%.
